“And” between values parts separate entries of the source, which are not always exact repeats. Equal values may be shown once.
Target: T1, NTR1 (Homo sapiens, UniProt P30989)
T1 construct: endogenous in cells; host or cells: PC3 cells (ATCC)
Experiment: ^125I-NT binding to PC3 cells
Settings: 10^5 cpm ^125I-ligand, 37° C.

By UniProt entry, the sequences of proteins in these tests, tags left out.
UniProt P30989, whole entry: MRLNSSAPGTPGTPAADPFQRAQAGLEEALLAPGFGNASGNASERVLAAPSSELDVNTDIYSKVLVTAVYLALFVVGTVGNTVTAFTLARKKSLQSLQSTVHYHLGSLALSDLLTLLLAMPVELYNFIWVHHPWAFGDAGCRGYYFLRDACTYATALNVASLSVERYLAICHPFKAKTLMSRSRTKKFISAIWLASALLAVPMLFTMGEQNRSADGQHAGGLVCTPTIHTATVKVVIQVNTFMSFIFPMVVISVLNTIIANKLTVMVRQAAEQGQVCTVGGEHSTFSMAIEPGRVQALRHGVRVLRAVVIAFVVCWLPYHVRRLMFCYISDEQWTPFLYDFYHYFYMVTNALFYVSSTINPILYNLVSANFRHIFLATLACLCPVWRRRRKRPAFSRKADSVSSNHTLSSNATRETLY

Substance: ^125I-NT: mono-iodinated neurotensin, agonist ligand for NTR1
- Specific Binding (% of total): > 95 % of total and ~95 % of total
